Results: patent publication US20240279332A1 (Amgen, published 2024)

Experiments:
[1] = target: T1, human TREM-1 (TrigGering Receptor Expressed on Myeloid cells 1) on cells (human, UniProt Q9NP99 21-234); assay: FACS on HEK293 co-transfected with human TREM-1 and DAP12; hybridoma supernatant 2.5 ug/mL; geomean fold over irrelevant control antibody
T1 construct: also called human TREM1/DAP12; TREM-1/DAP12
Protocol: (§1) The TREM-1-specific antibodies identified in primary screening were evaluated for cross-reactivity to cynomolgus TREM-1, as well as specificity to TREM-1 and not DAP12. TREM-1 hybridoma supernatants were tested for binding to human or cyno TREM-1 transiently expressed on HEK293 cells by FACS (harvests 1-6) or by […]™ (harvests 8-9). […] The following day, transfected HEK293 cells were transferred into 96-well FACS plates at 50,000 cells/well and incubated with normalized hybridoma supernatants at a final concentration of 2.5 μg/mL for 1 hour at 4° C. Cells were then pelleted by centrifugation, supernatant was removed by flicking, and wells were washed twice with 200 μL/well of FACS buffer. 5 μg/mL ALEXA FLUOR® 647 Goat anti-Human IgG Fc (Jackson ImmunoResearch) secondary detection antibody and 2.5 μg/mL 7-aminoactinomycin-D (Sigma) viability stain were incubated with the cells for 15 minutes at 4° C. Cells were pelleted by centrifugation, supernatant was removed by flicking, and wells were washed once more with 200 μL/well of FACS buffer. TREM-1 hybridoma supernatants showing human TREM-1- or cyno TREM-1-specific binding was detected by FACS on the BD ACCURI™ 06 flow cytometer with Intellicyt autosampler. The data was reported as geomean (GM) fold over irrelevant control antibody binding.

[2] = target: T1, human TREM-1 (TrigGering Receptor …); assay: cell-based or functional assay
[3] = target: T2, biotinylated human TREM-1-His antigen (human, UniProt Q9NP99 21-205, biotinylated in-house, site not stated); assay: limiting antigen assay, FACS on LumAvidin beads coated with 7.5 ng/mL biotinylated human TREM-1-His; antibody 5 ug/mL
T2 construct: Soluble TREM-1; also called b-huTREM-1-His; Soluble TREM1
Excerpt: TREM-1 Antibody Relative Affinity Ranking by Limiting Antigen Assay: TREM1 hybridoma supernatants were affinity-ranked within the panel by their binding kinetics to soluble TREM-1 in a limiting antigen assay using LUMAVIDIN® beads (Luminex) on FACS. Briefly, in-house biotinylated human TREM-1-His antigen (b-huTREM-1-His) was serially diluted in FACS buffer and combined with an equal volume of LUMAVIDIN® beads (different uniquely-barcoded bead for each antigen concentration), resulting in a 5-point 2-fold serial dilution series starting from a final b-huTREM-1-His antigen concentration of 30 ng/mL. The antigen-bead mixtures were plated across 3 wells in a 96-well FACS plate, then incubated for 30 minutes at room temperature protected from light. Beads were then pelleted by centrifugation, supernatant was removed by flicking, and wells were washed twice with 200 μL/well of FACS buffer. The different beads were then resuspended, pooled, and diluted in STABILGUARD® Immunoassay Stabilizer (SurModics) to block non-specific binding. Normalized TREM-1 hybridoma supernatants were combined with an equal volume of bead mixture in a FACS plate at a final concentration of 5 μg/mL test antibody to 0.5 μL beads/well. The plates were then shaken and incubated overnight for ˜18 hours at room temperature. Beads were then pelleted by centrifugation, supernatant was removed by flicking, and wells were washed twice with 200 μL/well of FACS buffer. ALEXA FLUOR® 488 Goat anti-Human IgG Fc secondary detection antibody (Jackson ImmunoResearch) was added at 5 μg/mL to the plates, shaken, and incubated for 15 minutes at room temperature protected from light. Beads were washed with FACS buffer, pelleted by centrifugation, supernatant was removed by flicking, and washed once more with FACS buffer. The beads were then resuspended and run on the BD ACCURI™ C6 Flow Cytometer with Intellicyt […]® autosampler.
The antibody binding signal correlates with antibody affinity; the degree of antibody binding to the target antigen TREM-1 correlates with the measured fluorescent intensity and thus allows a relative comparison of affinities across the panel.

cyno TREM-1 on cells = target: T3, cyno TREM-1 on cells (cynomolgus monkey, UniProt A0A2K5VHG8 21-233); assay: FACS on HEK293 co-transfected with cyno TREM-1 and DAP12; hybridoma supernatant 2.5 ug/mL; geomean fold over irrelevant control antibody
T3 construct: whole, on cells; On HEK293 cells co-transfected with DAP12, or native on cynomolgus PBMCs; also called cynomolgus TREM-1; TREM-1 receptor in cynomolgus monkey PBMCs
T3 sequence: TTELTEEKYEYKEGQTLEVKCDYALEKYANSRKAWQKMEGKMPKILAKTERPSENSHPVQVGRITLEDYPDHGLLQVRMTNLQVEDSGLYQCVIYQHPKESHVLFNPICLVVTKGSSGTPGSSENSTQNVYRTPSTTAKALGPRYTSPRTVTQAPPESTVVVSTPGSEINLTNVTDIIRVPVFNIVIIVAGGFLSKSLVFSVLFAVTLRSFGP
Protocol: as §1

[4] = target: T1, human TREM-1 (TrigGering Receptor …); assay: cell-based or functional assay; remark: listed apart in the source

B1: 64D7 (antibody, V domains shown)
VH: QVQLVQSGAEVKKPGASVKVSCKASGYTFTSYDINWVRQATGQGLEWMGWMNPNRGNTGYVKKFQGRVTMTRNTSISTAYMELSSLRSEDTAVYYCARRRAVYRSSWEWYFDLWGRGTLVTVSS
VL: DTQMTQSPSSLSASEGDRVTITCQASQDIFNDLNWYQEKPGKAPKLLIYHASNLETGVPSRFSGSGSGTDYTFTISSLQPEDIATYYCQQYGNLPLTFGGGTKVEIKR
notes: also called TREM1 antibody 64D7
- Human TREM1 GM Fold [1]: 1480 fold
- Ab IC50-Human PBMC (Trial 1), TNFα release after PGLYRP1/PGN [2]: 4.3 pM
- Ab IC50-Human PBMC (Trial 2), TNFα release after PGLYRP1/PGN [2]: 2.4 pM
- Soluble TREM1 7.5 ng/mL (FACS Geomean) [3]: 24500
- Cyno TREM1 GM Fold (cyno TREM-1 on cells): 2150 fold

B2: 61G5 (antibody, V domains shown)
VH: QVQLVQSGAEVKKPGASVKVSCKASGYTFTSYDINWVRQATGQGLEWMGWMNPNSGNSGSVKKFRDRVTMTRNTSISTAYMELSSLRSEDTAVYYCVRLIGYSSAWKWSFQHWGQGTLVTVSS
VL: DIQMTQSPSSLSASVGDRVTITCQASRDISKYLNWYQQKPGKAPKLQIYDASNLETGVPSRFSGSGSGTDFTFTISSLQPEDIATYYCQHYDNIPITFGQGTRLEIKR
notes: also called TREM1 antibody 61G5
- Human TREM1 GM Fold [1]: 2070 fold
- Ab IC50-Human PBMC (Trial 1), TNFα release after PGLYRP1/PGN [2]: 10.2 pM
- Ab IC50-Human PBMC (Trial 2), TNFα release after PGLYRP1/PGN [2]: 2.7 pM
- Soluble TREM1 7.5 ng/mL (FACS Geomean) [3]: 24800
- Cyno TREM1 GM Fold (cyno TREM-1 on cells): 2160 fold

B3: 50A12 Fab (Fab, V domains shown)
VH: EVQLVESGGGLVQPGGSLRLSCAASGFTFSSYWMSWVRQAPGKGLEWVANIKQDGSEEYYVDSVKGRFTISRDNAKNSLFLQMNSLRAEDTAVYYCARDYGDSFDYWGQGTLVTVSS
VL: DIQMTQSPSSVSASVGDRVTITCRASQGIRKWLAWYQQKPGRAPKLLIYAASRLQSGVPSRFSGSGSGTDFTLTISSLRPEDFATYYCLQAHGFPWTFGQGTKVEIK
- Fab IC50-pSYK Assay (Trial 1), human TREM-1/Dap12-HEK293, PGLYRP1/PGN [4]: 2850 pM

B4: 57F5 (antibody, V domains shown)
VH: EVQLLESGGGLVQPGGSLRLSCAASGFTFSSYAMTWVRQAPGRGLQWVSTISGSGSNTYYADSVKGRFTISRDNSKNTLYLQMSSLRAEDTAVYYCAKEGGSNRYFHHWGQGTLVTISS
VL: DIQMTQSPSSLSASVGDRVTITCRASQSISSNLNWYQQKPGKAPKLLISAASNLQSGVPSRFSGSESGTDFTLTISSLQSEDFATYYCQQSDSLPLTFGGGTKVEINR
notes: also called TREM1 antibody 57F5
- Human TREM1 GM Fold [1]: 719 fold
- Soluble TREM1 7.5 ng/mL (FACS Geomean) [3]: 25300
- Cyno TREM1 GM Fold (cyno TREM-1 on cells): 2340 fold

B5: 46H7 (antibody, V domains shown)
VH: EVQLLESGGGMVQPGGSLRLSCAVSGFTFSRYAMSWVRQAPGKGLEWVSEMRGSSGSTYYADSVKGRFTISRDNSKNTLYLQMNSLRVEDTAIYYCAKEFSSNSLFDYWGQGTLVTVSS
VL: EIVMTQSPATLSVSPGERATLSCRASQSVNSNLAWYQQKPGRAPRLLIYGASTRATGIPARFSGSGSGTEFTLTISSLQSEDFAVYYCQQFYNWPPWTFGQGTKVEIKR
notes: also called 46H7 (19332)
- Human TREM1 GM Fold [1]: 1910 fold
- Ab IC50-Human PBMC (Trial 1), TNFα release after PGLYRP1/PGN [2]: 6.3 pM
- Ab IC50-Human PBMC (Trial 2), TNFα release after PGLYRP1/PGN [2]: 4.4 pM
- Soluble TREM1 7.5 ng/mL (FACS Geomean) [3]: 38000
- Cyno TREM1 GM Fold (cyno TREM-1 on cells): 2690 fold

B6: 46H7 Fab (Fab, V domains shown)
VH: EVQLLESGGGMVQPGGSLRLSCAVSGFTFSRYAMSWVRQAPGKGLEWVSEMRGSSGSTYYADSVKGRFTISRDNSKNTLYLQMNSLRVEDTAIYYCAKEFSSNSLFDYWGQGTLVTVSS
VL: EIVMTQSPATLSVSPGERATLSCRASQSVNSNLAWYQQKPGRAPRLLIYGASTRATGIPARFSGSGSGTEFTLTISSLQSEDFAVYYCQQFYNWPPWTFGQGTKVEIK
- Fab IC50-pSYK Assay (Trial 1), human TREM-1/Dap12-HEK293, PGLYRP1/PGN [4]: 43.3 pM
- Fab IC50-pSYK Assay (Trial 2), human TREM-1/Dap12-HEK293, PGLYRP1/PGN [4]: 117 pM

B7: 44A5 (antibody, V domains shown)
VH: EVQLLESGGGLVQPGGSLRLSCAASGFTFSTYAMNWVRQAPGKGLEWVSTVSGSGRPTYYADSVKGRFTISRDNSKNTLYLQMNSLRAEDTAVYYCAKAYYSNYLFDYWGQGTLVTVSS
VL: EIVMTQSPAILSVSPGERATLSCRASQSVSSNLAWYQQKPGQAPRLLIYGASTRATGVPARFSGGGSGTDFTLTISSLQSEDFAVYYCQHCKTWPPLTFGGGTKVDLKR
notes: also called TREM1 antibody 44A5
- Human TREM1 GM Fold [1]: 1630 fold
- Ab IC50-Human PBMC (Trial 1), TNFα release after PGLYRP1/PGN [2]: 3.5 pM
- Ab IC50-Human PBMC (Trial 2), TNFα release after PGLYRP1/PGN [2]: 6.1 pM
- Soluble TREM1 7.5 ng/mL (FACS Geomean) [3]: 36800
- Cyno TREM1 GM Fold (cyno TREM-1 on cells): 2240 fold

B8: 44A5 Fab (Fab, V domains shown)
VH: EVQLLESGGGLVQPGGSLRLSCAASGFTFSTYAMNWVRQAPGKGLEWVSTVSGSGRPTYYADSVKGRFTISRDNSKNTLYLQMNSLRAEDTAVYYCAKAYYSNYLFDYWGQGTLVTVSS
VL: EIVMTQSPAILSVSPGERATLSCRASQSVSSNLAWYQQKPGQAPRLLIYGASTRATGVPARFSGGGSGTDFTLTISSLQSEDFAVYYCQHCKTWPPLTFGGGTKVDLK
- Fab IC50-pSYK Assay (Trial 1), human TREM-1/Dap12-HEK293, PGLYRP1/PGN [4]: 189 pM
- Fab IC50-pSYK Assay (Trial 2), human TREM-1/Dap12-HEK293, PGLYRP1/PGN [4]: 325 pM

B9: 66B8 Fab (Fab, V domains shown)
VH: QVQLVQSGAEVKKPGASVKVSCKASGYTFTGYYMHWVRQAPGQGLEWMGWFKPNSGVTNYAQKFQGRVTMSRDTSISTAYMELSSLRSDDTAVYYCARAGYSTSWKDWFDPWGQGTLVTVSS
VL: DIQMTQFPSSVSASVGDRVTITCRASQGISRWLAWYQQKQGKAPKLLIYMVSSLQSGVPSRFSGSGSGTDFTLTISSLQPEDFATYYCQQSHNFPITFGQGTRLDIK
- Fab IC50-pSYK Assay (Trial 1), human TREM-1/Dap12-HEK293, PGLYRP1/PGN [4]: 4660 pM

B10: 63F8 (antibody, V domains shown)
VH: QVQLVQSGAEVKKPGASVKVSCKASGYTFTSYDINWVRQATGQGLEWMGRMNPKSGNAGYVQNFRGRVTMTRNTSISTAYMELSSLRSEDTAVYYCARGGRTSIWSFVFDYWGQGTLVTVSS
VL: DIQMTQSPSSLSASVGDRVTITCQASQDISKHLNWYQQKPGKAPKLLIYDTSNLETGVPSRFSGSGSGTDFTFTISSLQPEDIATYNCQQYDKLPLTFGGGTKVEIKR
notes: also called TREM1 antibody 63F8
- Human TREM1 GM Fold [1]: 1380 fold
- Ab IC50-Human PBMC (Trial 1), TNFα release after PGLYRP1/PGN [2]: 3.8 pM
- Ab IC50-Human PBMC (Trial 2), TNFα release after PGLYRP1/PGN [2]: 3.1 pM
- Soluble TREM1 7.5 ng/mL (FACS Geomean) [3]: 25800
- Cyno TREM1 GM Fold (cyno TREM-1 on cells): 2370 fold

B11: 49A2 Fab (Fab, V domains shown)
VH: EVQLVESGGGLVQPGGSLRLSCAASGFTFSSNWMSWVRQAPGKGLDWMASMKQDGSEIYYVDSVKGRFTISRDNAKNSLHLQMNSLRAEDTAVYYCVRGGWRFESWGQGALVTVSS
VL: EIVMTQSPATLSVSPGERATLSCRASQSVSSNLAWYQQKSGQAPRLLIYGASIRATGIPARVSGSGSGTEFTFTISSLQSEDFAVYYCQQYKNWPLTLGGGTKVEIK
- Fab IC50-pSYK Assay (Trial 1), human TREM-1/Dap12-HEK293, PGLYRP1/PGN [4]: 1180 pM
- Fab IC50-pSYK Assay (Trial 2), human TREM-1/Dap12-HEK293, PGLYRP1/PGN [4]: 787 pM
